Measurements: ChEMBL document CHEMBL1629532, “Design, synthesis, and structure-activity relationships of 3-ethynyl-1H-indazoles as inhibitors of the phosphatidylinositol 3-kinase signaling pathway” (J Med Chem, 2010)

Columns and labels:
[1] = biological target: T1, Serine/threonine-protein kinase mTOR (Homo sapiens, UniProt P42345); assay: Inhibition of mTOR by LanthaScreen Eu kinase binding assay
How it was run: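 Eu kinase binding TR-FRET displacement with FRAP1 (mTOR) at 5 nM, kinase tracer 20 nM and Eu-anti-GST antibody 2 nM, all final. Buffer 25 mM Tris-HCl, 5 mM MgCl2, 0.02% CHAPS.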

[2] = biological target: T1, Serine/threonine-protein kinase mTOR; assay: Inhibition of mTORC1 expressed in HEK293 cells assessed as PRAS40 Ser183 phosphorylation level by LanthaScreen cellular assay; assay type: cell-based
How it was run: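 HEK293E cells stably expressing GFP-substrate fusions (AKT for pThr308; PRAS40 for pSer183), 20,000 per well, serum-starved overnight in low-glucose DMEM + 0.1% BSA. Lysed with 2 nM Tb-labeled phosphospecific antibody; TR-FRET read after 2 h at room temperature. IC50 by curve fitting.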

[3] = biological target: Phosphatidylinositol 4,5-bisphosphate 3-kinase catalytic subunit alpha isoform (Homo sapiens, UniProt P42336); assay: Inhibition of PI3Kalpha by LanthaScreen Eu kinase binding assay
How it was run: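 Eu kinase binding TR-FRET assay (tracer displacement). PIK3CA/PIK3R1 at 5 nM with kinase tracer 20 nM and Eu-anti-His antibody 2 nM, all final. Buffer 25 mM Tris-HCl, 5 mM MgCl2, 0.02% CHAPS.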

| SMILES | IC50 [1] | IC50 [2] | IC50 [3] |
| --- | --- | --- | --- |
| C(#Cc1n[nH]c2ncccc12)c1ccncc1 | > 10 µM | 19.1 µM |  |
| Nc1cccc(C#Cc2n[nH]c3ccccc23)c1 | > 100 µM |  |  |
| C(#Cc1n[nH]c2ccccc12)c1cccnc1 |  |  | 1.85 µM |
